{"source": "PubChem BioAssay AID624256", "about": "(NMMLSC, 2012)", "note": "The list shows a part of the results, in another mix than the full data. Active and inactive are the calls of the source.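 The calls were made as follows: active = normalized GFP-positive differentiation at or above the plate's own cutoff, the solvent-only control mean plus 3 SD; inconclusive = no clear call, values can overlap the other calls; inactive = the rest.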", "data": [{"experiment": "HoxA9-arrested leukemia cell differentiation promoters – flow cytometry, MLPCN library, primary screen (AID 624256)", "details": "ER-HoxA9 myeloid progenitors, lysozyme-GFP differentiation, at 10 µM", "values": [{"smiles": "c1ccc(-c2nn[nH]n2)c(-c2nn[nH]n2)c1", "outcome": "inactive"}, {"smiles": "CCNC(=S)/N=C(\\N)N[N+](=O)[O-]", "outcome": "inactive"}, {"smiles": "O=C(NC1CCS(=O)(=O)C1)NP(=S)(Oc1ccccc1)Oc1ccccc1", "note": "(stereo not given)", "outcome": "inactive"}, {"smiles": "COc1ccc(OP(C)(=O)Nc2ccc(SC(F)(F)F)cc2)cc1", "note": "(stereo not given)", "outcome": "inactive"}, {"smiles": "CCOC(=O)c1ccc(NP(C)(=O)Oc2ccc(F)cc2)cc1", "note": "(stereo not given)", "outcome": "inactive"}, {"smiles": "O=P1(N(CCCl)CCCl)OCCC2CCCCN21", "note": "(stereo not given)", "outcome": "inactive"}, {"smiles": "CCN(CC)CCCOC(=O)C(O)(c1ccccc1)C1CCCCC1", "note": "(stereo not given)", "outcome": "inactive"}, {"smiles": "CCC(=O)N1C2C3N(C(=O)CC)C1C1N(C(=O)CC)C(C(N1C(=O)CC)N3C(=O)CC)N2C(=O)CC", "outcome": "inactive"}, {"smiles": "O=C(OC1CN2CCC1CC2)c1ccccc1", "note": "(stereo not given)", "outcome": "inactive"}, {"smiles": "CC(=O)NC(SC(=S)N(CC(C)C)CC(C)C)C(Cl)(Cl)Cl", "note": "(stereo not given)", "outcome": "inactive"}, {"smiles": "Cc1ccc(OP(=O)(Nc2ccccn2)Oc2ccc(C)cc2)cc1", "outcome": "inactive"}, {"smiles": "Cc1c([N+](=O)[O-])cc([N+](=O)[O-])c(Br)c1[N+](=O)[O-]", "outcome": "inactive"}, {"smiles": "COC(=O)c1cc2c(s1)N=C(c1ccccc1)N(C)P2(=O)N1CCOCC1", "note": "(stereo not given)", "outcome": "inactive"}, {"smiles": "O=[N+]([O-])c1cc([N+](=O)[O-])c(OC2CCCCC2O)c([N+](=O)[O-])c1", "note": "(stereo not given)", "outcome": "inactive"}, {"smiles": "CCCCCOc1ccc(NP(C)(=O)Oc2ccc(Cl)cc2Cl)cc1", "note": "(stereo not given)", "outcome": "inactive"}, {"smiles": "CN(C)C(=O)Oc1noc2ccccc12", "outcome": "inactive"}, {"smiles": "CC(NC(=O)COC(=O)C(O)(c1ccccc1)c1ccccc1)c1ccccc1", "note": "(stereo not given)", "outcome": "inactive"}, {"smiles": "Cc1ccccc1OP(=O)(Nc1ccccn1)Oc1ccccc1C", "outcome": "inactive"}, {"smiles": "CP(=O)(Nc1ccccc1)Oc1ccc(F)cc1", "note": "(stereo not given)", "outcome": "inactive"}, {"smiles": "O=P(Nc1ccccn1)(c1ccc(Br)cc1)c1ccc(Br)cc1", "outcome": "inactive"}, {"smiles": "CN(C)C1(CNC(=O)c2ccc(Cl)c(S(N)(=O)=O)c2)CCCCC1", "outcome": "inactive"}, {"smiles": "COc1ccc(N)c([N+](=O)[O-])c1[N+](=O)[O-]", "outcome": "inactive"}, {"smiles": "COc1ccc(OP(C)(=O)Nc2cccc(Br)c2)cc1", "note": "(stereo not given)", "outcome": "inactive"}, {"smiles": "COc1ccc(NP(C)(=O)Oc2ccccc2OC)cc1", "note": "(stereo not given)", "outcome": "inactive"}, {"smiles": "C[C@H]1OP(=O)(Oc2ccccc2)[C@H](O)[C@H](O)[C@H]1N=[N+]=[N-]", "note": "(stereo not given in full)", "outcome": "inactive"}, {"smiles": "CN(C)CCOC(=O)C(O)(c1ccccc1)C1CCCCC1", "note": "(stereo not given)", "outcome": "inactive"}, {"smiles": "O=P(Nc1nc2ccccc2s1)(c1ccccc1)c1ccccc1", "outcome": "inactive"}, {"smiles": "Cc1cc(-c2cccc3ccccc23)c(C)cn1.O=[N+]([O-])c1cc([N+](=O)[O-])c(O)c([N+](=O)[O-])c1", "outcome": "inactive"}, {"smiles": "O=[As](O)(c1ccccc1)c1ccc(O)cc1", "outcome": "inactive"}, {"smiles": "O=[N+]([O-])c1ccc(O)c(/C=N/Nc2ccc([N+](=O)[O-])cc2[N+](=O)[O-])c1", "outcome": "inactive"}, {"smiles": "O=[N+]([O-])c1ccc(OP2(=O)COCCO2)cc1", "note": "(stereo not given)", "outcome": "inactive"}, {"smiles": "CC(=O)NC(SC(=S)N(C)C)C(Cl)(Cl)Cl", "note": "(stereo not given)", "outcome": "inactive"}, {"smiles": "O=[N+]([O-])c1ncn(CCn2cnc([N+](=O)[O-])n2)n1", "outcome": "inactive"}, {"smiles": "O=C(OC1CN2CCC1CC2)c1cccc(Cl)c1", "note": "(stereo not given)", "outcome": "inactive"}, {"smiles": "C(Cc1nn[nH]n1)Cc1nn[nH]n1", "outcome": "inactive"}, {"smiles": "Nc1ccc([As](=O)(O)c2ccc([N+](=O)[O-])cc2)cc1", "outcome": "inactive"}, {"smiles": "Cc1c(C(c2ccc3c(c2)OCO3)c2c(C)n(C)n(-c3ccccc3)c2=O)c(=O)n(-c2ccccc2)n1C.O=[N+]([O-])c1cc([N+](=O)[O-])c(O)c([N+](=O)[O-])c1", "outcome": "inactive"}, {"smiles": "CC(C)C(=O)NC(Sc1ccccc1)C(Cl)(Cl)Cl", "note": "(stereo not given)", "outcome": "inactive"}, {"smiles": "O=P(Nc1nccs1)(c1ccccc1)c1ccccc1", "outcome": "inactive"}, {"smiles": "CP(=O)(Nc1ccc(SC(F)(F)F)cc1)Oc1ccc(F)cc1", "note": "(stereo not given)", "outcome": "inactive"}, {"smiles": "c1nnnn1CCn1cnnn1", "outcome": "inactive"}, {"smiles": "CCOP(C)(=S)SCC(=O)NC(C)(CC)C(=O)O", "note": "(stereo not given)", "outcome": "inactive"}, {"smiles": "CP(=O)(Nc1ccc2c(c1)OCCO2)Oc1ccccc1", "note": "(stereo not given)", "outcome": "inactive"}, {"smiles": "O=[N+]([O-])c1cc([N+](=O)[O-])c(C(F)(F)F)c([N+](=O)[O-])c1O", "outcome": "inactive"}, {"smiles": "Cc1ccccc1NP(C)(=O)Nc1ccccc1C", "outcome": "inactive"}]}]}
